Tested on: ovariectomized female rats
Assay: Bone mineral content by whole body DEXA after ovariectomy (Example 2)
Type: in vivo, rat
Settings: OVX female rats, 30 day treatment period

## CC(=O)Nc1ccc(OC[C@](C)(O)C(=O)Nc2ccc([N+](=O)[O-])c(C(F)(F)F)c2)cc1 [Compound VI, S-3-(4-acetylamino-phenoxy)-2-hydroxy-2-methyl-N-(4-nitro-3-trifluoromethyl-phenyl)-propionamide]
0.1 mg
  BMC increase relative to placebo-treated ovariectomized controls: approximately 5%
0.3 mg
  BMC increase relative to placebo-treated ovariectomized controls: ~8.3%
0.5 mg
  BMC increase relative to placebo-treated ovariectomized controls: ~4.7%
0.75 mg
  BMC increase relative to placebo-treated ovariectomized controls: ~8.3%
1 mg
  BMC increase relative to placebo-treated ovariectomized controls: ~10%
3 mg
  BMC increase relative to placebo-treated ovariectomized controls: ~11.6%

— patent publication US20050032750A1, “Treating androgen deficiency in female (ADIF)-associated conditions with SARMS” (priority 2003, published 2005)
